## Ab-14 heavy chain CDR variants: yeast mating affinities

Values reported by Engelhart et al. 2022, doi:10.1038/s41597-022-01779-4 (FLAb copy).

Binding partner: SARS-CoV-2 spike HR2 peptide, sequence PDVDLGDISGINAS.

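Phage display of a naive human antibody library on the peptide gave the parent. Variants in AAYL49 differ from the parent at up to three CDR positions; double and triple changes were sampled at random. In AlphaSeq, yeast of one mating type display the scFv and yeast of the other type display the target. Pairs that bind mate more often; barcode pairs of the diploids are counted by sequencing. The ratio of observed to expected reads was calibrated, replicate by replicate, on BCL2-family standards whose Kd was known from biolayer interferometry. The assay was run in three technical replicates.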

Parent scFv Ab-14: VH joined to VL by a (GGGGS)3 linker. Changes lie in the heavy chain CDRs alone.
VH: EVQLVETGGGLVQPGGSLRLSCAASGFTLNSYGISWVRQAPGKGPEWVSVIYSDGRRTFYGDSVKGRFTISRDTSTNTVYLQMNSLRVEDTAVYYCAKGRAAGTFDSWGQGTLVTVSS
VL: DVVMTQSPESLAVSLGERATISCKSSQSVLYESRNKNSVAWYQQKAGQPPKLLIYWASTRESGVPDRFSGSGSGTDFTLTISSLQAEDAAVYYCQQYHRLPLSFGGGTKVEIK

Substitutions are numbered in sequence along the VH above, starting at 1 (not Kabat).
This list gathers variants with a substitution at G103 (VH, numbered from residue 1).
Values are apparent Kd, the geometric mean of the replicates that gave a signal; lower means stronger binding.
"nd" means that the variant was in the library but no mating with the target was seen in any replicate; the authors take this as a sign of poor binding, and no number exists.
Entries are sorted by rising average, undetected variants last.

With T28N+Y32E+G103A the result was 8.2 nM (3 of 3 replicates).
With R56Y+K65M+G103Y the result was 36 nM (3 of 3 replicates).
With N30H+G103N+S107C the result was 50 nM (3 of 3 replicates).
With G26N+R100D+G103F the result was 150 nM (3 of 3 replicates).
With F27K+G103V the result was 230 nM (3 of 3 replicates).
With T28C+K65I+G103N the result was 270 nM (1 of 3 replicates).
With T28G+G103H+T104K the result was 640 nM (3 of 3 replicates).
With R100E+G103K+T104Q the result was 3.5 µM (1 of 3 replicates).
With G26T+D62Y+G103M the result was 4.1 µM (2 of 3 replicates).
With G61Y+D62E+G103W the result was 4.7 µM (1 of 3 replicates).
With S31C+G103L+T104A the result was 4.7 µM (1 of 3 replicates).
With I34Y+Y60H+G103L the result was 5.4 µM (1 of 3 replicates).
With D54Q+G103S the result was 6.6 µM (3 of 3 replicates).
With N30V+A101Y+G103Q the result was 11 µM (1 of 3 replicates).
With I34T+Y60K+G103E the result was 15 µM (1 of 3 replicates).
With N30D+T58K+G103C the result was 19 µM (1 of 3 replicates).
With S31C+G99Q+G103L the result was 29 µM (2 of 3 replicates).
With T58L+K65P+G103P the result was 38 µM (3 of 3 replicates).
With D54R+G103R+F105N the result was 56 µM (1 of 3 replicates).
With I34F+S63R+G103F the result was 96 µM (1 of 3 replicates).
With V50M+I51C+G103T the result was 1.1 mM (1 of 3 replicates).
With I34R+D54Y+G103H the result was nd (0 of 3 replicates).
With F59W+R100L+G103Y the result was nd (0 of 3 replicates).
With T28S+T58F+G103M the result was nd (0 of 3 replicates).
With G33A+G103R+F105Q the result was nd (0 of 3 replicates).
With F27K+Y60N+G103P the result was nd (0 of 3 replicates).
With D54L+R100N+G103N the result was nd (0 of 3 replicates).
With T28N+V50Y+G103L the result was nd (0 of 3 replicates).
With Y52I+G103Q+T104V the result was nd (0 of 3 replicates).
With K65I+G99A+G103Y the result was nd (0 of 3 replicates).
With F27N+G103Q+D106V the result was nd (0 of 3 replicates).
With G61Y+A101G+G103W the result was nd (0 of 3 replicates).
With G103L the result was nd (0 of 3 replicates).
With G26F+Y52H+G103S the result was nd (0 of 3 replicates).
With N30W+A102W+G103Y the result was nd (0 of 3 replicates).
With Y32N+R56F+G103W the result was nd (0 of 3 replicates).
With G26L+D54S+G103Y the result was nd (0 of 3 replicates).
With G55V+G103L the result was nd (0 of 3 replicates).
With G99M+G103I the result was nd (0 of 3 replicates).
With G26W+I51M+G103Y the result was nd (0 of 3 replicates).
With G33A+G103W+F105V the result was nd (0 of 3 replicates).
With I51K+F59S+G103D the result was nd (0 of 3 replicates).
With S63A+G99S+G103S the result was nd (0 of 3 replicates).
With I51H+G103F+D106L the result was nd (0 of 3 replicates).

Excerpt, the final 3 entries:

For I51K+F59S+G103D, the assay gave nd (0 of 3 replicates).
For S63A+G99S+G103S, the assay gave nd (0 of 3 replicates).
For I51H+G103F+D106L, the assay gave nd (0 of 3 replicates).

Background: pairings of library AAYL49 with three empty control strains gave a value in 15% of cases (median 11 µM, 5th percentile 680 nM). Values in that range, when seen in few replicates, are hard to tell from nonspecific mating.